Measurements published in patent US20180230127A1 (PFIZER INC., priority 2015, published 2018).

Amino acid sequences for entries named in this document (tags omitted). Residues count along the entry.
UniProt Q9NWZ3, 154-460 limits assumed: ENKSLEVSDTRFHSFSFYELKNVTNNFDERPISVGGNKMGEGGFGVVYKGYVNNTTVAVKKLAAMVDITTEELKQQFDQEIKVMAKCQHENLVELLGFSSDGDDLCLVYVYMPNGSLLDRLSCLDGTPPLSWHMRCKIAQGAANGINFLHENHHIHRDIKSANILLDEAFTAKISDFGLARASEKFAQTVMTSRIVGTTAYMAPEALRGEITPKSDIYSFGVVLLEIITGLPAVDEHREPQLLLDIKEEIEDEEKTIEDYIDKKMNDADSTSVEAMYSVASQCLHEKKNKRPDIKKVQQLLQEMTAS

Target: human IRAK4 kinase domain (aa 154-460) (Homo sapiens, UniProt Q9NWZ3)
Assay: IRAK4 Enzymatic DELFIA Assay
Conditions: read-out: IRAK4 IC50 nM; 0.6 mM ATP (KM); 114 pM IRAK4 kinase domain; 200 nM substrate; 5% DMSO; tested form: trifluoroacetate
Procedure: IRAK4 Enzymatic DELFIA Assay.
This is an in vitro assay to measure IRAK4 enzymatic activity utilizing the DELFIA (Dissociation-Enhanced Lanthanide Fluorescent Immunoassay, Perkin-Elmer) platform, with the human IRAK4 kinase domain (aa 154-460) construct to characterize IRAK4 inhibitor and control compounds at 0.6 mM ATP (KM). The final amount of enzyme in the assay is 114 pM IRAK4 kinase domain, final concentration of substrate is 200 nM, and final concentration of DMSO is 5%.
The test compound was solubilized in DMSO to a stock concentration of 30 mM. The dose response plates were prepared with a 2 mM primary compound concentration, and then diluted in DMSO in a four-fold series for a total of 10 data points. Compounds were prepared as a 20-fold multiple of the final in-assay concentration […]
100 μL of the reaction mixture was transferred to a streptavidin coated detection plate (EvenCoat Streptavidin Coated Plates, 96-Well, R&D Systems) and incubated for 30 minutes at room temperature. […] Then 100 μL per well of DELFIA Enhancement Solution were added to the plate and then read on an EnVision Model 2103 using a 340 nm excitation wavelength and a 665 nm emission detection.

## CC(C)Oc1cc2c(OC3CCN(C(=O)[C@@H](C)N)CC3)nccc2cc1C(N)=O
  IC50: 755 nM
